Test results reported in PMC4790291, “Short, Synthetic Cationic Peptides Have Antibacterial Activity against Mycobacterium smegmatis by Forming Pores in Membrane and Synergizing with Antibiotics” (Antibiotics, 2015).
Like-named read-outs stand apart in the source and are kept apart here.

Legend:
[1] = tested on: M. smegmatis mc^2155
[2] = compared to PBS (pH 7); cited from earlier work

Structure (SMILES)	EC50 ([1]; 1 × 10^5 CFU per well, 10 mM potassium phosphate buffer pH 7.2 with 0.1% MB7H9, 3 h, 37 °C, CFU plated in triplicate, sigmoidal fit)	EC50 ([1]; same assay as μg/mL value, 3 h, 10 mM phosphate buffer)	Hemolysis [2]
C[C@H](NC(=O)[C@H](CCCNC(=N)N)NC(=O)[C@@H](N)CCCCN)C(=O)N[C@@H](CCCCN)C(=O)N[C@@H](CCCCN)C(=O)N[C@@H](Cc1ccccc1)C(=O)N[C@@H](Cc1ccccc1)C(=O)N[C@@H](CCCCN)C(=O)N[C@@H](CCCCN)C(=O)N1CCC[C@H]1C(=O)N[C@@H](CCCCN)C(N)=O [ATRA-2]	>100 µg/mL	–	–
CC[C@H](C)[C@H](NC(=O)[C@@H](NC(=O)[C@H](CCCCN)NC(=O)[C@@H]1CCCN1C(=O)[C@H](CCCCN)NC(=O)[C@H](CCCCN)NC(=O)[C@H](Cc1ccccc1)NC(=O)[C@H](Cc1ccccc1)NC(=O)[C@H](CCCCN)NC(=O)[C@H](CCCCN)NC(=O)[C@H](C)NC(=O)[C@H](CCCNC(=N)N)NC(=O)[C@H](CCCCN)NC(=O)[C@H](CCCCN)NC(=O)[C@@H](NC(=O)[C@H](CO)NC(=O)[C@H](CC(N)=O)NC(=O)[C@H](CCCCN)NC(=O)[C@H](CC(C)C)NC(=O)[C@H](CCCCN)NC(=O)[C@H](CCCCN)NC(=O)[C@H](Cc1ccccc1)NC(=O)[C@H](Cc1ccccc1)NC(=O)[C@H](CCCCN)NC(=O)[C@H](CCCCN)NC(=O)[C@H](Cc1ccccc1)NC(=O)[C@H](CCCNC(=N)N)NC(=O)[C@@H](N)CCCCN)C(C)C)C(C)C)C(=O)NCC(=O)N[C@H](C(=O)N[C@H](C(=O)N[C@@H](Cc1ccccc1)C(=O)N1CCC[C@H]1C(=O)N[C@@H](Cc1ccccc1)C(=O)O)[C@@H](C)O)C(C)C [NA-CATH]	–	451 nM	did not elicit statistically significant hemolysis
